Values quoted from earlier work, collected in patent publication US20100221823A1, “METHOD FOR CULTURING MAMMALIAN CELLS TO IMPROVE RECOMBINANT PROTEIN PRODUCTION” (Amgen Inc., priority 2007, published 2010).

Legend:
[1] = spermine 2 mM; cited from earlier work
[2] = test system: Human-human hybridoma HB4C5 cells; conditions: spermine 2.4 mM or higher; cited from earlier work

## Cl.Cl.Cl.Cl.NCCCNCCCCNCCCN [spermine, spermine tetrahydrochloride]
[1]
  Effect of high exogenous concentration on cells: inhibition of cell growth and/or result in cell death
[2]
  Cell growth: suppressed cell growth
  Time after which viability declined: 3 days
